The data set can be described thus: Pharmacokinetics in NMRI mice. As to conditions: IP, 10 mg kg^–1.

“(4-Amino-2-(cyclohexylamino)thiazol-5-yl)(2,6-difluorophenyl)methanone [Compound 16]”: the “free blood concentrations relative to EC50/EC90” value was “did not reach the EC50 or EC90”.

Values taken from article PMC10350920, “Development of a 2,4-Diaminothiazole Series for the Treatment of Human African Trypanosomiasis Highlights the Importance of Static–Cidal Screening of Analogues” (Journal of Medicinal Chemistry, 2023).
